Data set [1] relates to wild type mice. Description: Cardiac safety after chronic treatment in wild type mice. The settings on record: 3 months, vs vehicle. It is filed as in vivo.
The conditions of data set [2]: mice, 3 mg/kg s.c.
For data set [3], the target named is T1, β1-ADR (Rattus norvegicus, UniProt P18090).
T1 construct: an animal study using rat ventricles; host or cells: rat ventricles (endogenous receptor)
The settings on record: prolonged administration, rat ventricles; cited from earlier work.

Chains of the proteins cited; added tags and fusions are not shown.
UniProt P18090, whole entry: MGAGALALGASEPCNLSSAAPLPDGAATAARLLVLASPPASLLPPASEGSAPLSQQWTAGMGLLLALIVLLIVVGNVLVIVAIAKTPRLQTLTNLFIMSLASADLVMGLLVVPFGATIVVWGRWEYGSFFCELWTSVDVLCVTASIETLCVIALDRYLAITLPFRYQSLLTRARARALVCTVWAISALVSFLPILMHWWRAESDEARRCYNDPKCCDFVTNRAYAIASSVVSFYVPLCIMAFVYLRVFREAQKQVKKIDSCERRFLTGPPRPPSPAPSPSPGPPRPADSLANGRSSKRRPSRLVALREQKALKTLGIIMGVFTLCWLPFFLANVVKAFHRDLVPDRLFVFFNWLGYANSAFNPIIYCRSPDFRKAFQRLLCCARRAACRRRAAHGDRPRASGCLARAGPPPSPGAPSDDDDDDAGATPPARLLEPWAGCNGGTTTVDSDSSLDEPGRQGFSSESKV

Counter-ions that a name gives are not always drawn. Like-named read-outs stand apart in the source and are kept apart here.

In the case of `O=C(NCCNCC(O)COc1ccc(O)cc1)N1CCOCC1` (racemic) [xamoterol, 1-p-Hydroxyphenoxy-3-beta-(morpholinocarbonamido)ethyl-amino-2-propanol hydrogen fumarate], in data set [1], the “Left ventricular to right ventricular (LV/RV) ratio” value is “did not show significant difference”. Further, the P/B ratio came out at 1.1 ± 0.4 in data set [2] (30 minutes), 0.4 ± 0.04 in data set [2] (1 hour) and 0.04 ± 0.01 in data set [2] (2 hours). For the same molecule, the “β1-ADR density or adenylate cyclase coupling efficiency” value in data set [3] is “did not induce reduction”.

Source of the values: patent US9849134B2, “Method of improving cognition and social behavior in humans having deficits therein due to neurodegenerative disorders and compounds and compositions therefor” (The Board of Trustees of the Leland Stanford Junior …, priority 2014, dated 2017).
